Yeast mating assay 2: variants of the scFv Ab-91

The measurements come from Engelhart et al. 2022 (doi:10.1038/s41597-022-01779-4) through the FLAb antibody collection.

The target is the same throughout: PDVDLGDISGINAS, from the HR2 region of SARS-CoV-2 spike.

Parent: Ab-91, a human scFv built as VL, a 15-residue (Gly4Ser)3 linker, VH. Only the CDRs of the heavy chain vary.
VL: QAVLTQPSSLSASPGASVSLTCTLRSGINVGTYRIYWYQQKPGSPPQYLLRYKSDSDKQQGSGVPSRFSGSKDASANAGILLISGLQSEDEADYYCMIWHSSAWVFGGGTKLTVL
VH: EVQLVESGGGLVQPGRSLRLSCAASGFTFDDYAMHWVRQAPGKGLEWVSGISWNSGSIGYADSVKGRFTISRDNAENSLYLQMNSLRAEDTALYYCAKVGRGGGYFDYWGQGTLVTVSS

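The library (AAYL51) carries one to three amino acid substitutions per variant, with no insertions or deletions. In AlphaSeq, yeast of one mating type display the scFv and yeast of the other type display the target. Binding brings cells together so that they mate, and sequencing counts the barcode pairs among the diploids. Scores were corrected for input abundance and mapped to Kd with protein pairs of known affinity run in the same pool. Mating was done three times.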

Changes read parent residue, position, new residue, counted from the first residue of the VH shown.
The Kd shown is the geometric mean over detected replicates; a lower Kd is a better binder.
Where no diploid with the target was found in any replicate, the entry reads "nd": below detection, most likely a poor binder, though not proof of it.
As a blank, each scFv also met three strains without target: over library AAYL51, 21% of these pairings were detected, typically at 34 µM and seldom below 1.8 µM. For each scFv, signals with the empty controls are counted beside the result.

Variant D62V S63Q Y105W gave 1.0 µM (1 of 3 replicates; controls 1 of 9).
Variant F29M G50Y G59K gave 6.3 µM (1 of 3 replicates; controls 0 of 9).
Variant S55Y I58T G59C gave nd (0 of 3 replicates; controls 0 of 9).
Variant Y32S S55A Y105A gave 430 nM (3 of 3 replicates; controls 3 of 9).
Variant G26I Y105Q F106N gave 280 µM (3 of 3 replicates; controls 8 of 9).
Variant I58Y G102Y Y105N gave nd (0 of 3 replicates; controls 0 of 9).
Variant D31Y A61D Y105M gave 9.0 µM (3 of 3 replicates; controls 2 of 9).
Variant D31S N54P Y105L gave nd (0 of 3 replicates; controls 0 of 9).
Variant G26S V99E F106D gave nd (0 of 3 replicates; controls 0 of 9).
Variant F29K F106E gave nd (0 of 3 replicates; controls 2 of 9).
Variant M34K G56A V64F gave 24 µM (1 of 3 replicates; controls 3 of 9).
Variant F29W G50K D62M gave 1.1 mM (1 of 3 replicates; controls 1 of 9).
Variant F27I F29R D62Y gave nd (0 of 3 replicates; controls 0 of 9).
Variant W53E I58D K65P gave nd (0 of 3 replicates; controls 0 of 9).
Variant A33H N54D gave 9.8 µM (1 of 3 replicates; controls 1 of 9).

The remaining entries, values ahead:

560 nM (3 of 3 replicates; controls 2 of 9) for D31R G103R.
nd (0 of 3 replicates; controls 0 of 9) for S55G V99F.
nd (0 of 3 replicates; controls 1 of 9) for A33S M34V S57Y.
90 µM (2 of 3 replicates; controls 3 of 9) for W53N G59R F106R.
210 nM (3 of 3 replicates; controls 3 of 9) for T28S G100K Y108D.
2.2 µM (1 of 3 replicates; controls 1 of 9) for S52A F106L D107Y.
nd (0 of 3 replicates; controls 1 of 9) for N54H G56Q G59D.
17 µM (1 of 3 replicates; controls 0 of 9) for S52N R101D G103I.
4.3 µM (3 of 3 replicates; controls 9 of 9) for T28G G100A.
nd (0 of 3 replicates; controls 2 of 9) for V99P G104W.
8.5 µM (1 of 3 replicates; controls 1 of 9) for M34H S57N G102C.
nd (0 of 3 replicates; controls 2 of 9) for S52D N54T G100Y.
310 nM (3 of 3 replicates; controls 3 of 9) for W53D G56Q S63V.
710 nM (3 of 3 replicates; controls 7 of 9) for F29Y W53H R101S.
nd (0 of 3 replicates; controls 0 of 9) for F29A S57C D107E.

The 2 strongest on average among those seen in every replicate, once more:

{"changes": "T28S G100K Y108D", "apparent Kd": "210 nM", "seen in": "3 of 3", "empty controls": "3 of 9"}
{"changes": "W53D G56Q S63V", "apparent Kd": "310 nM", "seen in": "3 of 3", "empty controls": "3 of 9"}

Parent in this assay: reference entry 72 nM, copy in this library 7.5 nM.